Data reported in PMC3570733 (Biochemistry, 2013).

Legend:
BcerKBAB4_1335 = settings: 25 °C; expressed with 2,2'-bipyridyl, Mn (1.0) Zn (0.6) per monomer
purified protein = substrate: N[C@H](COP(=O)(O)O)Cc1c[nH]cn1; test: purified protein; settings: 25 °C
[1] = enzyme as isolated, Mn (1.0) Zn (0.4) Fe (0.3) per monomer
[2] = enzyme as isolated, Zn (0.4) Fe (0.3) per monomer
[3] = expressed without 2,2'-bipyridyl, Fe (2.6) Zn (0.4) per monomer
[4] = enzyme as isolated, Mn (1.1) Zn (0.3) per monomer

## N[C@H](COP(=O)(O)O)Cc1c[nH]cn1 [L-histidinol phosphate]
BcerKBAB4_1335
  Km: 1300 ± 200 µM

B1: GK2799 (Geobacillus kaustophilus HTA426) (protein)
chain: MRDGHIHTPFCPHGSQDPLEAYVERAIELGYTDISFTEHAPLPERFIDPTPNQDCSMKLSQLERYLHAVAEVKARYRNDIAIRVGLEVDFIPGFEEETTRLLDEVGPLLDDSILSVHFLAHEGQYVCLDYSEDMFADIVRLFGSVERVHRAYYETVLQSIRTELGRYKPRRIGHMTLVRKFQRRFPCLEPMDEWIVAILDDIKQFGYELDYNGAGAAKPLCLEPYPPGGVIAEARRRGIPIVYGSDAHRAADLHQGRERMDREALSVDNRPQPS
Purified protein; [1]
  Km: 8000 ± 3000 µM
  kcat: 7.6 s⁻¹
  kcat/Km: 900 M⁻¹ s⁻¹

B2: SMU_1486c (Streptococcus mutans UA159) (protein)
chain: MRDNHLHTHFSYDSDASFEDYLTHYDGEIVTTEHYDLSNPYTQQDDVPDYEAYSKEIAELNAKYGNRIKRGIEIGYYQPREADILSFLADKDYDLKLLSVHHNGVNDYLDDEVADMDKETIIQEYLDKLEYAIGRVEADVLAHFDYGFRLFDLTVDELKTHEAQLRRIFHKMIDHNLAFELNSKSMYLYGHEHLYRYALSLVKNLGCHKYTIGSDGHKLEHFRLAFDKIQDILDEYGIEEGEII
Purified protein; [2]
  Km: 580 ± 70 µM
  kcat: 0.31 s⁻¹
  kcat/Km: 530 M⁻¹ s⁻¹

B3: MCCL_0344 (Macrococcoides caseolyticum JCSC5402) (protein)
chain: MKVDFHIHLEEGPYTNNFFNKTITSIDTVKGIQATHTLDDIERKAQLFNERMEKGDYSEWWLDLYLEMSLQKGLKQVGIVDHLYRFQETRNYFLKYMDVSDTDLGCRQREWLNQVMTHKMDDFVTFINSQKEKWDKAGVELKLGIEADYFIGGEEELKSLLAPYEFDYIIGSVHFNHGWGFDNPELENKFNEYDLVKLYTDHFNTVIKAAESGIFSFIAHLDNLKVFNYRPEEALLIPLYEQVAEALAKNDVATEVNVGLKYRYPVKEQCPSERFIKVLSEYDVKFTTSSDSHFPHDIGIYNDEIRNLLKRNGVKSIVTFSKMKREEKDIKSIIH
Purified protein; enzyme as isolated, Mn (0.9) Fe (0.6) Zn (0.3) per monomer
  Km: 1500 ± 300 µM

B4: BBR47_00270 (Brevibacillus brevis NBRC 100599) (protein)
chain: MLIDYHLHLEEGPFSLRWLDRTNMALDHFYPLTEPRHTRAWLLDSLARLNNRMSLGAYDPSWIDLYLREALNKGLKEVGIVDHLYRFREARPYFERYMELGDTELGRLQRTWLNQVCTESLSDFCVAIEEAKQRWSASGVELRLGLEADYFIGGEAELESLLAGASWDYVIGSVHFLQGWGFDNPETRHLFEQHDLKQLYTDFFHTVESMIRSNLFDFVAHLDNLKVFSYRPEESELVPYYHRIATALKETDTATEINAGLYYRYPVQEMCPSPAFLDVLVAHGVPLTLSSDAHFPDDIGRYVAVNLEILDSMGVTEIATFFGRQRIMRPICYA
Purified protein; enzyme as isolated, Zn (1.6) Mn (0.3) per monomer
  Km: 2600 ± 300 µM

B5: BCE_1533 (Bacillus cereus ATCC 10987) (protein)
chain: MKVDYHIHLEEGPYSIGWLAKINESLQHYEPLKEEKHSMEWLVKIQERLQRRVNEGPFTTKWIDLYLEEALRKGIKEVGIVDHLYRFYEAKEYYEKYVDISDSGLGRLQKEWLDQVRVASLHDFTKAIEEAKERWSKRGVTLKLGIEADYFIGGEQQLQSLLALGDFDYVIGSVHFLNGWGFDNPDTKEYFKEHDLYALYDTFFKTVECAVRSELFDIIAHLDNIKVFNYRLDENEQISYYKKIARALVETNTATEINAGLYYRYPVREMCPSPLYLQVLAKHEVPITLSSDAHYPNDLGKYVEENIKTLRNHDIAHLATFTKRVRTMRLLEEVTISK
Purified protein; enzyme as isolated, Mn (1.4) Zn (0.4) per monomer
  Km: 1500 ± 100 µM

B6: BSU29620 (Bacillus subtilis subsp. subtilis str. 168) (protein)
chain: MQKRDGHIHTPFCPHGSNDTLRQYAEEALKKGFESITFTEHAPLPPSFTDPTPLKDSAMAQASLERYIHEISGLKKEYRGQLSIRTGLEVDYIAEFEDEITLFLDTYGPYLDDSILSVHFLRTDSSYLCLDYDEHTFKELISACGSIEAVYEQYYRSIYSSIVASLGVYKPKRVGHITLVQKFIKLFPYSMSEHIRGLVSLCLNAIEENGMELDFNTSGLRKTYAGGIYIEDWMLNEAKQKKIPLVFGSDAHQAGDVGYAYEAFLERC
Purified protein; [3]
  Km: 100 ± 10 µM
  kcat: 0.37 s⁻¹
  kcat/Km: 3700 M⁻¹ s⁻¹

B7: BH3206 (Halalkalibacterium halodurans C-125) (protein)
chain: MGKHDGHVHTPFCPHGTKDSFDAYCERAISLGFTSLSFTEHAPLPKGFTDPTPAQDSSIGWNELDDYIHTLSSIKKAYRDQLTIYIGLEVDFIEGFEEEICTFLNEYGPLLDDSLLSVHFLKHSDRYFCIDYSPDVFAVAIRTFGSIQAVYDTYYRTLERSITSELGPYKPKRIGHMTLVNKFQKKFPAPSTEHQKKSQLEILQLVKKHGYSLDYNGAGFIKPLCGESYPPESIAKEAVALGIPLIYGSDAHQAKALATGWEQMTPTLKNQDE
Purified protein; [4]
  Km: 640 ± 80 µM
  kcat: 28 s⁻¹
  kcat/Km: 44000 M⁻¹ s⁻¹
